Test results reported in patent US20090208979A1, “Method for identifying antipsychotic drug candidates” (priority 2008, published 2009).

Columns and labels:
GABAAβ2/β3 subunit = conditions: primary cortical neuronal cell cultures
GABAAβ3 mRNA = conditions: rats, 14 days daily IP (haloperidol 1 mg/kg, fluvoxamine 10 mg/kg, clozapine 10 mg/kg); frontal cortex; vs control

O=C(CCCN1CCC(O)(c2ccc(Cl)cc2)CC1)c1ccc(F)cc1 [haloperidol]
increase of GABAAβ2/β3 subunit phosphorylation compared to controls (GABAAβ2/β3 subunit; acute treatment, 15 minutes): did not alter
increase of GABAAβ2/β3 subunit phosphorylation compared to controls (GABAAβ2/β3 subunit; chronic treatment, 7 days): did not alter
GABAAβ3 mRNA level (GABAAβ3 mRNA): significantly increased

CN1CCN(C2=Nc3cc(Cl)ccc3Nc3ccccc32)CC1 [clozapine]
increase of GABAAβ2/β3 subunit phosphorylation compared to controls (GABAAβ2/β3 subunit; acute treatment, 15 minutes): 169%
increase of GABAAβ2/β3 subunit phosphorylation compared to controls (GABAAβ2/β3 subunit; chronic treatment, 7 days): 37%

COCCCC/C(=N\OCCN)c1ccc(C(F)(F)F)cc1 [fluvoxamine]
increase of GABAAβ2/β3 subunit phosphorylation compared to controls (GABAAβ2/β3 subunit; acute treatment, 15 minutes): did not alter
increase of GABAAβ2/β3 subunit phosphorylation compared to controls (GABAAβ2/β3 subunit; chronic treatment, 7 days): did not alter
GABAAβ3 mRNA level (GABAAβ3 mRNA): increased significantly

Read-outs that look alike come from different tables or passages of the source.
